Columns and labels:
[1] = tested on: NCI-N87 human gastric cancer cells; test: In vivo efficacy in NCI-N87 CDX model; parameters: species or system female BALB/c nude mice; settings: 5 mg/kg
Experimental: NCI-N87 human gastric cancer cells were implanted into the right flank of female BALB/c nude mice. The animals were randomly divided into 4 groups with 5 tumor-bearing mice in each group on day 6 after tumor inoculation. […] Tumor volume was measured twice weekly in two dimensions using a caliper, and the volume was expressed in mm^3 using the formula: V=0.5 a×b^2 where a and b are the long and short diameters of the tumor, respectively. The body weight of the mice were measured twice a week, and abnormal behavior was observed daily such as mobility, food and water consumption.
The T/C (%) value is calculated for each group using the formula: T/C %=TRTV/CRTV×100% (TRTV: treatment group RTV; CRTV: control group RTV; RTV: relative tumor volume). The RTV=Vt/V0, V0 is the average tumor volume on the first day of treatment, VT is the average tumor volume on a given day, the data of TRTV is from the same day as CRTV.
TGI is calculated for each group using the formula: TGI (%)=[1−(Ti−T0)/(Vi−V0)]×100; Ti is the average tumor volume of a treatment group on a given day, T0 is the average tumor volume of the treatment group on the first day of treatment, Vi is the average tumor volume of the vehicle control group on the same day with Ti, and V0 is the average tumor volume of the vehicle group on the first day of treatment.

[2] = tested on: Capan-1 xenograft; test: In vivo efficacy in Capan-1 CDX model; parameters: species or system female BALB/c nude mice

Substance: Enhertu
- tumor inhibition effect, in words ([1]; NCI-N87 CDX model): excellent tumor inhibition effect
- T/C (%) ([1]; NCI-N87 xenograft, PG-D35): 12.81%
- TGI (%) ([1]; NCI-N87 xenograft, PG-D35): 103.79%
- Tumor volume (mm^3) on day 35 ([1]; NCI-N87 xenograft, PG-D35): 148 ± 55 mm^3
- tumor inhibition effect, in words ([2]; Capan-1 CDX model): obviously tumor inhibition effect
- T/C (%) ([2]; Capan-1 xenograft, PG-D35): 8.23%

Source: US20260077056A1, “LINKER-PAYLOAD COMPOUND, CONJUGATES AND APPLICATIONS THEREOF” (priority 2022, published 2026)
